Values quoted from earlier work, collected in patent publication US20220265700A1, “METHODS TO PREVENT, INHIBIT OR TREAT INTERVERTEBRAL DISC DEGENERATION” (University of Iowa Research Foundation, priority 2021, published 2022).

Test system: rat nucleus pulposus cells
Settings: 30 μM tBHP (Lin et al., 2020); cited from earlier work

CC(C)(C)OO [tBHP, tert-butyl hydrogen peroxide]
cell apoptosis and mitochondrial dysfunction relative to control: 6-7 times
